Statin myotox sup = suppressors of simvastatin-induced myotoxicity in C2C12 myotubes. AID 602340. ATP luminescence, 48 h; scaled: DMSO 0, geranylgeraniol control 100. rescue of ATP level, % at 7.49 µM. 330,000 tested, 0.78% active;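 active = mean ATP rescue above about 67%, or every replicate alone reaching that limit, limit read from the data, passing the limit was not always enough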;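 note: myotubes were challenged with 10 µM simvastatin during compound exposure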
Cneo AK release = causes C. neoformans cell lysis; adenylate kinase release luminescence, 4 h; normalised: neutral wells 0, clomiphene wells 100; AID 651654; lysis activity, % at 15 µM; 360,000 tested, 0.2% active;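 active = mean lysis activity across replicates of at least 80%, whatever share of replicates individually reach that level; inactive = mean lysis activity below 80%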
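Material – log-phase Cryptococcus neoformans yeast cells · Input – 5 × 10^6 yeast cells/mL · Medium – fresh YPD growth medium · Doses – single compound concentration per well · Timing – static 4 h at 37 °C with compound, 1 h detection · Detection – adenylate kinase release luminescence · Read-out – signal increase indicating cell lysis · Control set – Clomiphene as positive lysis control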
UUG fidelity = modulators of yeast start codon fidelity, primary screen, whole organism, S. cerevisiae, single point, plate reader; S. cerevisiae UUG-firefly luciferase reporter, luminescence/redox ratio; activity score, % at 18.7 µM; 0.13% of 350,000 active; AID 602363, 2012;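 active = replicate mean at a twofold rise or more, about +100% in these data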;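 also: firefly luciferase made from a UUG start codon reports start codon fidelity; reporter light over untreated wells divided by growth signal over untreated wells; some hits fall short of that in this replicate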
Glyco luc inh = blocks N-linked glycosylation in D54 reporter cells. AID 588692. reporter increase, % at 12.5 µM. 360,000 tested, 0.23% active. D54 ERlucT glycosylation luciferase reporter, 24 h; percent of 100 nM tunicamycin response;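 active = mean luciferase reporter signal, scaled so untreated is 0 and the glycosylation-blocking control 100, at or above a set limit in every replicate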;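 note: luciferase carries N-glycosylation sites so blocking glycosylation raises the light; 0% = median of neutral control wells and 100% = median of 100 nM tunicamycin wells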
miR-122 sensor = miR-122 inhibition in Huh7 cells | activation (reporter increase), % at 12.5 µM | AID 602342 | Huh7 miR-122 Renilla luciferase sensor, 48 h; neutral wells = 0, positive control = 100 | 340,000 tested, 0.3% active;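 active = mean replicate activation score at least 90 and every replicate individually at or above 90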;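 note: higher luciferase means less miR-122 activity so hits act as miR-122 inhibitors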
The depositor's hits bear a star; / = no result; ! = not active in a repeat; [ ] = dose if it differs, or a comment. Sampled rows, rich in hits. Any-hit rate of the full collection: about 1.2%.

SMILES	Statin myotox sup	Cneo AK release	UUG fidelity	Glyco luc inh	miR-122 sensor
CSc1ccc(S(=O)(=O)NCC(=O)OCC(=O)N2CCCC2=O)cc1[N+](=O)[O-]	1	0	-11	-1	-3
CCC(CC)NC(=O)COC(=O)c1ccc(OCC(=O)Nc2ccccc2OC)c(OC)c1	67*	-1	-14	0	-10
Clc1cnc(Nc2cccnc2)c(Cl)c1	5	-1	-4	-1	/
N#Cc1ccc(Oc2ccc(/C=N/O)cn2)cc1	122*	-2	0	1	-8
C[C@H](CO)N1C[C@H](C)[C@H](CN(C)Cc2ccc(Cl)c(Cl)c2)Oc2c(NS(=O)(=O)c3cn(C)cn3)cccc2C1=O	39	7	0	/	25[16.7 µM]
CCNC(=O)Nc1ccc2c(c1)C(=O)N(C)[C@H]1CC[C@H](CC(=O)N[C@@H](C)c3ccccc3)O[C@H]1CO2	-5	91*	/	/	/
CCNC(=O)Nc1ccc2c(c1)C(=O)N(C)[C@@H]1CC[C@H](CC(=O)N[C@@H](C)c3ccccc3)O[C@@H]1CO2	-12	193*	/	/	/
CCNC(=O)Nc1ccc2c(c1)C(=O)N(C)[C@H]1CC[C@@H](CC(=O)N[C@H](C)c3ccccc3)O[C@H]1CO2	12	-11	/	/	/
Cc1ccc(CCNc2ccccc2C)cn1	1	1	-11	2	-6
CCCNC(=O)Nc1ccc2c(c1)OC[C@H](C)N(C(=O)CC)C[C@@H](C)[C@H](OC)CN(C)C2=O	-13	-3	8	/	11[16.7 µM]
Cc1nc2c3cc(F)ccc3n(CCN3CCCCC3)c2s1	-11	-8	-9	32*	18
C[C@H]1CN([C@@H](C)CO)C(=O)c2ccccc2-c2ccccc2CO[C@@H]1CN(C)C(=O)Cc1ccccc1	11	44	/	/	/
C[C@@H]1CN([C@@H](C)CO)C(=O)c2cc(NS(=O)(=O)c3ccccc3)ccc2O[C@@H]1CN(C)Cc1ccc2c(c1)OCO2	42	-3	-8	/	15[16.7 µM]
Cc1ccc(S(=O)(=O)Nc2cccc3c2O[C@H](CN(C)C(=O)NC(C)C)[C@H](C)CN([C@H](C)CO)C3=O)cc1	-20	-1	13	/	6[16.7 µM]
Oc1ccc(Br)cc1CNc1cccc2cccnc12	83*	-2	-17	3	/
Cc1ccc(O)c(CNc2cccc3cccnc23)c1	/	/	/	8	/
COc1ccccc1NC(=O)N1CCN(c2ccc(F)cc2)CC1	2	-1	-8	2	-4
COc1ccccc1NC(=O)N1CCN(c2cccc(C(F)(F)F)c2)CC1	123*	1	-8	1	-6
C[C@H](CO)N1C[C@H](C)[C@H](CN(C)C)Oc2cc(-c3ccccc3F)ccc2S1(=O)=O	20	4	-10	/	-2[16.7 µM]
CC(C)NC(=O)N1C[C@H]2[C@@H](c3ccccc31)[C@H](CO)N2Cc1ccccc1	38	-4	-6	/	4[16.7 µM]
CN(C)C1=NC[C@H](Cc2ccccc2)N1CC1CCCCCC1	97*	1	-10	0	-1
CN(C)C1=NC[C@H](Cc2ccccc2)N1CCC1CCCC1	-55	-1	0	2	0
COc1ccc(C(=O)COC(=O)c2cnc(C)cn2)cc1OC	10	-2	-25	1	-3
CC(=O)N(C)C[C@@H]1[C@@H](c2ccc(-c3ccc(F)cc3)cc2)[C@H](CO)N1C(C)=O	0	7	-6	/	-8[16.7 µM]
Cc1cc(S(=O)(=O)Nc2nc(CN3CCOCC3)nc3sc4c(c23)CCCC4)ccc1F	121*	4	0	0	4
Cc1cc(S(=O)(=O)Nc2nc(CN3CCOCC3)nc3sc4c(c23)CCC4)cc(C)c1C	11	0	-2	-1	/
CN(C)c1ccc(/C=N/N2CCN(c3ccccn3)CC2)cc1	/	1	1	0	3
CCO[C@@H]1OC(C(=O)Nc2ccccc2)=C[C@H](c2coc3ccccc3c2=O)[C@H]1CCCO	6	102*!	29	11	1
CC(=O)Nc1ccc(Nc2nc(-c3ccccc3)nc3ccccc23)cc1	/	/	/	17	/
CC(=O)Nc1cccc(Nc2nc(-c3ccccc3F)nc3ccccc23)c1	106*	-4	-5	6	-2
CC(C(=O)N1CCCc2ccccc21)N1C(=O)c2ccccc2C1=O (stereo not drawn)	109*	10	-16	1	-3
CC(Oc1ccccc1)C(=O)N1CCCc2ccccc21 (stereo not drawn)	15	3	6	0	2

Part of the list above in order of number of heavy atoms, largest number first:
SMILES	Statin myotox sup	Cneo AK release	UUG fidelity	Glyco luc inh	miR-122 sensor
CCO[C@@H]1OC(C(=O)Nc2ccccc2)=C[C@H](c2coc3ccccc3c2=O)[C@H]1CCCO	6	102*!	29	11	1
Cc1cc(S(=O)(=O)Nc2nc(CN3CCOCC3)nc3sc4c(c23)CCCC4)ccc1F	121*	4	0	0	4
CC(=O)Nc1cccc(Nc2nc(-c3ccccc3F)nc3ccccc23)c1	106*	-4	-5	6	-2
CC(=O)Nc1ccc(Nc2nc(-c3ccccc3)nc3ccccc23)cc1	/	/	/	17	/
CC(C(=O)N1CCCc2ccccc21)N1C(=O)c2ccccc2C1=O (stereo not drawn)	109*	10	-16	1	-3
CC(Oc1ccccc1)C(=O)N1CCCc2ccccc21 (stereo not drawn)	15	3	6	0	2

(more compounds)
SMILES	Statin myotox sup	Cneo AK release	UUG fidelity	Glyco luc inh	miR-122 sensor
COC(=O)[C@@H]1[C@@H](CO)[C@@H]2Cn3c(ccc(C4=CCCC4)c3=O)[C@@H]2N1CC1CCOCC1	19	28	/	/	/
Cc1c(O)cc2c(c1O)C(=O)CC(c1ccccc1)O2 (stereo not drawn)	-8	-3	2	43*	-25
CC(C)C#Cc1cnc2c(c1)C(=O)N([C@H](C)CO)C[C@H](C)[C@H](CN(C)C(=O)Nc1ccccc1)O2	12	-8	19	/	-7[16.7 µM]
COc1ccc(-c2nc(NCCCN(C)C)c3ccccc3n2)cc1	1	0	-3	43*	-5
CCN(CC)CCCNc1nc(-c2ccccc2)nc2ccccc12	-31	1	-8	8	3
COc1ccccc1CNC(=O)C[C@H]1C[C@@H]2c3cc(NC(=O)CN(C)C)ccc3O[C@@H]2[C@@H](CO)O1	-1	-3	/	/	-1[16.7 µM]
O=C(CN1C(=O)NC2(CCOc3ccccc32)C1=O)NCCc1ccccc1 (stereo not drawn)	9	0	-11	1	-2
CC(C)CCNC(=O)CCCOc1cc(=O)n(C)c2ccccc12	21	/	0	31*	10
CN1CCN(CCCNC(=O)CCCOc2cc(=O)n(C)c3ccccc23)CC1	5	1	-19	10	-1
COc1cc(CO)cc(I)c1O[C@H]1C=C(C(=O)NCCO)C[C@@H](N(CC2CCCCC2)C(=O)c2cc3ccccc3oc2=O)[C@@H]1O	/	92*	/	/	/
C[C@@H]1CCCCO[C@H](CN(C)C(=O)Nc2ccc3c(c2)OCO3)[C@H](C)CN([C@H](C)CO)C(=O)c2cc(NS(=O)(=O)c3cccs3)ccc2O1	49	-2	-5	/	1[16.7 µM]
CN1C(=O)c2cccc3c(S(=O)(=O)NCc4ccco4)ccc1c23	110*	-3	-5	14	56
CN1C(=O)c2cccc3c(S(=O)(=O)Nc4ccccn4)ccc1c23	/	/	/	41*	47
COc1ccc(S(=O)(=O)NCc2ccco2)c2ccccc12	12	1	-6	-1	96*
COc1ccc(C(=O)Nc2ccc(S(=O)(=O)NCc3ccco3)cc2)cc1OC	6	-1	18	4	176*
COCC(=O)N1C[C@@H](C)[C@H](OC)CN(C)C(=O)c2cc(NC(=O)Nc3cccc(F)c3)ccc2OC[C@H]1C	-13	-1	/	/	/
CCC(C)N(C(=O)CSc1ccc(NC(C)=O)cc1)C1CCS(=O)(=O)C1 (stereo not drawn)	/	/	/	2	/
Cc1cccc(NC(=O)c2cc(S(=O)(=O)NCc3ccco3)ccc2F)c1C	79*	0	-2	8	34

Screens: PubChem BioAssay, Broad Institute
